From patent US4455312A

Assays:
in vivo [1] = conditions: mouse, ip
carrageenin edema = conditions: rat, in vivo, ip
[2] = system: formalin edema of a foot in the rat; conditions: in vivo, ip
in vivo [3] = conditions: rat
[4] = system: threshold of pain sensitivity in contact-heat stimulation; conditions: mouse, in vivo
cotton granuloma = conditions: in vivo

## Cc1cccc(Nc2ccccc2C(=O)O)c1C [Mephenamine acid, N--(2,3-dimethylphenyl) anthranilic acid]
In vivo [1]
  LD50 at 168 h: 150 mg/kg
Carrageenin edema
  Therapeutic index (carrageenin edema): 1.8
[2]
  Therapeutic index (formalin edema): 1.5
In vivo [3]; ip
  LD50 at 168 h: 180 mg/kg
In vivo [3]; po
  LD50 at 168 h: 520 mg/kg
[4]
  Therapeutic index (analgetic activity): 8.3
Cotton granuloma
  Therapeutic index (cotton granuloma): 7.43
